Earlier results on one compound are cited in patent US20250332108A1 (Veradermics, Incorporated, priority 2024, published 2025).

A value given as a limit tells only on which side of the number the result lay.

For the data set the following is noted: oral; cited from earlier work.

Regarding `Nc1cc(N2CCCCC2)nc(N)[n+]1[O-]` [Minoxidil], the “Absorption from the gastrointestinal tract” value is > 90%.
